Measurements reported in US20140193415A1 (Hoffmann-La Roche, published 2014).

Protein sequences, listed by entry. Tags and fused reporters are not part of them. Residues count along the entry.
UniProt P08637, 17-208 limits assumed: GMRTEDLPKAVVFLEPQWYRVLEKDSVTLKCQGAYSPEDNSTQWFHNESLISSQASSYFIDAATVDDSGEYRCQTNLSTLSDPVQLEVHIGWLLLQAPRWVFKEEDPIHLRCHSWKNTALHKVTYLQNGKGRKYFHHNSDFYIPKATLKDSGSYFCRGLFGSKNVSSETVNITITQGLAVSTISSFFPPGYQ
UniProt P08069, 31-1320 limits assumed: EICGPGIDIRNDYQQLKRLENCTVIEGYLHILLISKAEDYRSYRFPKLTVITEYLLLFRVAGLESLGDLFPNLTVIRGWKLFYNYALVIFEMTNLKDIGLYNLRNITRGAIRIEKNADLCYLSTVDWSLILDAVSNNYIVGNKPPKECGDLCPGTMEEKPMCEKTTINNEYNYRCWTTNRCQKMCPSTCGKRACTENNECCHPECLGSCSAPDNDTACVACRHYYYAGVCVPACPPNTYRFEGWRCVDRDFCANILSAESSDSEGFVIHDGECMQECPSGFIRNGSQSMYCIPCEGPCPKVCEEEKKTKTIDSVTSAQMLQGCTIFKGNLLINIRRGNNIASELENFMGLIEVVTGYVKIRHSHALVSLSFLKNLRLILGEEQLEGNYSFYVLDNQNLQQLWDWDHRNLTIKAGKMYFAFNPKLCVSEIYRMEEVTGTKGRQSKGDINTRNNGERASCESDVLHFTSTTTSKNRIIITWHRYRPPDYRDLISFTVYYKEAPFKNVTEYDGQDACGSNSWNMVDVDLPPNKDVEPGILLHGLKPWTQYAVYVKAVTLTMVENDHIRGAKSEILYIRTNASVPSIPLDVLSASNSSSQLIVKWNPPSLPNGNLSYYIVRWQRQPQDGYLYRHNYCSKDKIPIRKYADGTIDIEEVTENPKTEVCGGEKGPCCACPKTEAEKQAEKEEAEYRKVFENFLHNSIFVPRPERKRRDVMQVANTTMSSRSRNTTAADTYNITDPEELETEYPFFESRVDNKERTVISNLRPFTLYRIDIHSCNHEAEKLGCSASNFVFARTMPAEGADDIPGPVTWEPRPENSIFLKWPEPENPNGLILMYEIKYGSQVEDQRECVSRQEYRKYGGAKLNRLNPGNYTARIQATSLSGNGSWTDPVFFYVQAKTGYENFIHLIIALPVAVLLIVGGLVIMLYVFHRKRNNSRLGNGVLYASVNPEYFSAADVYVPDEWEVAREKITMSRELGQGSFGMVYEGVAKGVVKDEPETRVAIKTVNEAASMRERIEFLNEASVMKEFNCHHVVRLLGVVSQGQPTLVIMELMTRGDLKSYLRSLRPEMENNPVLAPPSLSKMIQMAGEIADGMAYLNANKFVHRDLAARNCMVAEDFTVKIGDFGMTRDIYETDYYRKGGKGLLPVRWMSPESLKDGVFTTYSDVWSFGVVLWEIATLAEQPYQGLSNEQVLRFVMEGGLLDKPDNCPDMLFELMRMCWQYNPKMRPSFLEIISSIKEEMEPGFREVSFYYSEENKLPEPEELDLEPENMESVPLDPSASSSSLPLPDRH

B1: OA-F13B5-scFab-GA201 (bispecific antibody, human IgG1, kappa)
heavy 1: not shown
heavy 2: not shown
light: DIQMTQSPSSLSASVGDRVTITCRASQGINNYLNWYQQKPGKAPKRLIYNTNNLQTGVPSRFSGSGSGTEFTLTISSLQPEDFATYYCLQHNSFPTFGQGTKLEIKRTVAAPSVFIFPPSDEQLKSGTASVVCLLNNFYPREAKVQWKVDNALQSGNSQESVTEQDSKDSTYSLSSTLTLSKADYEKHKVYACEVTHQGLSSPVTKSFNRGEC
B2: OA-F13B5-scFab-GA201-GE (bispecific antibody, human IgG1, kappa)
heavy 1: not shown
heavy 2: not shown
light: B1 light
B3: OA-L31D11-scFab-GA201-GE (bispecific antibody, human IgG1, kappa)
heavy 1: not shown
heavy 2: not shown
light: B1 light
B4: OA-L31D11-scFab-GA201 (bispecific antibody, human IgG1, kappa)
heavy 1: not shown
heavy 2: not shown
light: B1 light

What was measured:
human Fc Gamma RIIIa [1] = target: T1, human Fc Gamma RIIIa (human, UniProt P08637 17-208, limits assumed); assay: SPR (Biacore), antibody captured on immobilised huHER1-ECD, FcgRIIIa as analyte, 25 C; WT (nonglycoengineered version)
T1 construct: The methods list human FcgRIIIa(V158) and huFcgRIIIa(F158) as analytes; also called FcgRIIIa; human FcgRIIIa

[2] = target: T2, human IGF-1R on human tumor cells (A549, BxPC3, TC-71) (human, UniProt P08069 31-1320); assay: FACS competition with labeled R1507 on A549 cells; ratio against OA-Ak18-scFab-GA201
T2 construct: Endogenous receptor on human tumor cell lines; A549 and BxPC3 also express EGFR; TC-71 express IGF-1R only
Procedure: (§1) Human tumor cells (A549 or TC-71, 2×10^5 cells/well) diluted in ice-cold buffer (PBS+2% FCS, Gibco) were added to a mixture of labeled monospecific IGF-1R antibody R1507 (final concentration of 1 μg/ml) and different concentrations of unlabeled IGF1R-EGFR bispecific antibodies or unlabeled monospecific antibodies or Fab fragments as controls (final titration range of 100 to 0.002 μg/ml) in a 96-well microtiter plate. The mixture was incubated on ice for 45 minutes. Cells were washed 2 times by addition of 150-200 μl buffer (PBS+2% FCS) and subsequent centrifugation (300 g; 5 min, 4° C.). The cells were then resuspended in 200 μl fixation buffer (1× CellFix, BD #340181) containing 6.25 μl/ml 7-AAD (BD #559925) and incubated for 10-20 min on ice to allow for fixation and penetration of 7-AAD in dead cells. Fluorescent signal of the samples was analyzed by FACS and IC50 values are calculated.
(§2) In this setting, were only IGF-1R but not EGFR is expressed 1+1 bispecific antibodies can only bind to IGF-1R with one binding arm, thus differences in IGF-1R affinity might become more crucial.

[3] = target: T2, human IGF-1R on human tumor cells …; assay: cell-based or functional assay
[4] = target: T2, human IGF-1R on human tumor cells …; assay: FACS competition with labeled R1507 on A549 cells (express IGF-1R and EGFR)
Procedure: as §1, §2

[5] = target: T2, human IGF-1R on human tumor cells …; assay: FACS competition with labeled R1507 on TC-71 cells (express IGF-1R, not EGFR)
Procedure: as §1, §2

[6] = target: T2, human IGF-1R on human tumor cells …; assay: cell-based or functional assay; remark: listed apart in the source
[7] = target: T2, human IGF-1R on human tumor cells …; assay: FACS competition with labeled R1507 on TC-71 cells; ratio against OA-Ak18-scFab-GA201
Procedure: as §1, §2

human Fc Gamma RIIIa [8] = target: T1, human Fc Gamma RIIIa; assay: SPR (Biacore), antibody captured on immobilised huHER1-ECD, FcgRIIIa as analyte, 25 C; glycoengineered (GE)

Binder | Kd (human Fc Gamma RIIIa [1]) [nM] | fold better binding than OA-Ak18-scFab [2] [fold] | potency of IGF-1R inhibition against unmodified OA-Ak18-scFab-GA201, A549 [3] [fold] | potency of IGF-1R inhibition against unmodified OA-Ak18-scFab-GA201, BxPC3 [3] [fold] | potency of IGF-1R inhibition against unmodified OA-Ak18-scFab-GA201, TC-71 [3] [fold] | IC50 [4] [nM] | IC50 [5] [nM] | Inhibition of IGF-1R phosphorylation (IC50) A549 [6] [nM] | Inhibition of IGF-1R phosphorylation (IC50) BxPC3 [6] [nM] | Inhibition of IGF-1R phosphorylation (IC50) TC-71 [6] [nM] | fold better binding than OA-Ak18-scFab [7] [fold] | Kd (human Fc Gamma RIIIa [8]) [nM]
B1 | 33 | ~2 | 2 | 2 | 25 | 0.67 | 4.09 | 0.1 | 0.07 | 0.08 | 10 | –
B2 | – | – | – | – | – | – | – | – | – | – | – | 7.5
B3 | – | – | – | – | – | – | – | – | – | – | – | 6.4
B4 | 64 | ~2 | 4 | 6 | 50 | 0.39 | 1.59 | 0.05 | 0.03 | 0.04 | 25 | –
